Membrane permeability of cyclic peptides

Values of Hewitt et al. 2015, doi:10.1021/ja508766b, as listed in CycPeptMPDB.

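The data file gives no further conditions (lipid, pH, time, direction or concentration), and values from different papers need not be comparable. Other peptides of the study may be missing here. Peptides that the database sets to -10, its floor, are left out.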

Caco-2 values are permeabilities across monolayers of Caco-2 human intestinal cells.
Values are log10 P with P in cm/s, so -5 is more permeable than -7.

{"smiles": "CC(C)C[C@@H]1NC(=O)[C@@H](CC(C)C)NC(=O)[C@H](CC(C)C)NC(=O)[C@@H](CC(C)C)NC(=O)[C@H]2CCCN2C(=O)[C@H](Cc2ccc(O)cc2)NC1=O", "Caco-2 (log10 cm/s)": "-6.84"}
{"smiles": "CC(C)C[C@@H]1NC(=O)[C@H](CC(C)C)NC(=O)[C@@H](CC(C)C)NC(=O)[C@@H](CC(C)C)NC(=O)[C@H]2CCCN2C(=O)[C@H](Cc2ccc(O)cc2)NC1=O", "Caco-2 (log10 cm/s)": "-6.59"}
{"smiles": "CC(C)C[C@@H]1NC(=O)[C@H](CC(C)C)NC(=O)[C@@H](CC(C)C)NC(=O)[C@H]2CCCN2C(=O)[C@H](Cc2ccc(O)cc2)NC(=O)[C@@H](CC(C)C)NC1=O", "Caco-2 (log10 cm/s)": "-5.44"}
{"smiles": "CC(C)C[C@H]1NC(=O)[C@H]2CCCN2C(=O)[C@H](Cc2ccc(O)cc2)NC(=O)[C@@H](CC(C)C)NC(=O)[C@@H](CC(C)C)NC(=O)[C@@H](CC(C)C)NC1=O", "Caco-2 (log10 cm/s)": "-7.35"}
{"smiles": "CC(C)C[C@@H]1NC(=O)[C@@H](CC(C)C)NC(=O)[C@@H](CC(C)C)NC(=O)[C@H]2CCCN2C(=O)[C@H](Cc2ccc(O)cc2)NC(=O)[C@@H](CC(C)C)NC1=O", "Caco-2 (log10 cm/s)": "-5.10"}
{"smiles": "CC(C)C[C@@H]1NC(=O)[C@H](CC(C)C)NC(=O)[C@@H](CC(C)C)NC(=O)[C@H]2CCCN2C(=O)[C@H](Cc2ccc(O)cc2)NC(=O)[C@H](CC(C)C)NC1=O", "Caco-2 (log10 cm/s)": "-6.37"}
{"smiles": "CC(C)C[C@@H]1NC(=O)[C@@H](CC(C)C)NC(=O)[C@@H](CC(C)C)NC(=O)[C@@H](CC(C)C)NC(=O)[C@H]2CCCN2C(=O)[C@H](Cc2ccc(O)cc2)NC1=O", "Caco-2 (log10 cm/s)": "-6.64"}
{"smiles": "CC(C)C[C@@H]1NC(=O)[C@@H](CC(C)C)NC(=O)[C@H]2CCCN2C(=O)[C@H](Cc2ccc(O)cc2)NC(=O)[C@@H](CC(C)C)NC(=O)[C@@H](CC(C)C)NC1=O", "Caco-2 (log10 cm/s)": "-6.32"}